Literature values, collected in article PMC11329750 (Clinical and Translational Science, 2024).

Test system: pregnane X receptor (PXR)
Settings: read-out: EC50 of binding to the PXR binding pocket; cited from earlier work

hyperforin
EC50: 0.032 µM
